Literature values, collected in patent US7829562B2, “Sigma ligands for neuronal regeneration and functional recovery” (M's Science Corporation, priority 2003, dated 2010).

The chains behind the UniProt entries cited, without tags or fusion partners.
UniProt Q99720, whole entry: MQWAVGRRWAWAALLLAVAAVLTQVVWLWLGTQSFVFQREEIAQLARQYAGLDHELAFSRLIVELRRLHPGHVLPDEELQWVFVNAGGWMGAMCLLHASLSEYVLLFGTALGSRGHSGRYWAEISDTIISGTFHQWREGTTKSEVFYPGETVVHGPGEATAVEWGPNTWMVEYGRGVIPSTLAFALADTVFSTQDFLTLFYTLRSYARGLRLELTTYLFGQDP

Target: sigma-1 site compared to the sigma-2 site (Homo sapiens, UniProt Q99720)
Details: (+) isomers of benzomorphan opiates; cited from earlier work

(+)SKF 10,047
affinity for the sigma-1 site compared to the sigma-2 site: nearly two orders of magnitude higher affinity
